# scFv variants of Ab-14 (heavy chain) against a SARS-CoV-2 spike peptide

Data: MIT Lincoln Laboratory AlphaSeq set, Li et al. 2023, doi:10.1038/s41467-023-39022-2, as distributed in FLAb.

The target is the same throughout: PDVDLGDISGINAS, from the HR2 region of SARS-CoV-2 spike.

The variants keep the light chain, the linker and the frameworks of Ab-14 (scFv order VH, three GGGGS repeats, VL).
VH: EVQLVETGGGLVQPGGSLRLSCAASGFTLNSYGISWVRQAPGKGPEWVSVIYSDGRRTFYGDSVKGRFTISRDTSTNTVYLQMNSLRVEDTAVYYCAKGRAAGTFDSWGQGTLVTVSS
VL: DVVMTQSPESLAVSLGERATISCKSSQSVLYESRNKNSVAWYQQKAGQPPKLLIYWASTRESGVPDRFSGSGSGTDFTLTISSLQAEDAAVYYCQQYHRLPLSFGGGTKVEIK

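The starting antibody came from a phage panning campaign against this peptide. These sequences belong to a second round, designed from the earlier measurements on random variants of the parent. Their group label is 14H_Ctrl (Ctrl: baseline library sampled from a position-specific scoring matrix, with some repeated check sequences). AlphaSeq pools MATa yeast showing the antibodies with MATalpha yeast showing the peptide. The frequency of each diploid, read from paired DNA barcodes, reflects how well the two displayed proteins bind. A regression on co-assayed BCL2-family reference pairs converts the normalised counts of each replicate to an apparent Kd. Mating was done six times.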

Substitutions are numbered in sequence along the VH above, starting at 1 (not Kabat). Numbers give log10(Kd / nM), so 0 is 1 nM and 3 is 1 µM. Smaller is tighter. An entry "nd" has no value in the source: the pair was not observed among the diploids in that replicate. This suggests poor binding but is not conclusive. In the paper, a design with two or fewer of six values counts as a poor binder. Of ten entries with the parent sequence, four were seen in most replicates (averages 0.34 to 2.37), three in one and three in none, so single entries are noisy. The range of this assay differs from that of the first round, and the authors advise against merging the two. Background: pairings of all heavy chain designs with three empty control strains gave a value in 1% of cases (median 2.08, 5th percentile 0.84). Values in that range, when seen in few replicates, are hard to tell from nonspecific mating. Also given: how often the same scFv was detected with the empty control strains, with their mean in brackets.

| changes | replicates, log10 nM | signal with controls |
|---|---|---|
| G61D R100E | -0.10 / nd / nd / nd / nd / nd | 0 of 18 |
| F27N G61L A101S | nd / nd / nd / nd / nd / nd | 0 of 18 |
| F59A G103C | nd / nd / nd / nd / nd / nd | 0 of 18 |
| R56L R100S D106V S107L | nd / nd / nd / nd / nd / nd | 0 of 18 |
| F27T T58V A101G A102Y | nd / nd / nd / nd / nd / nd | 2 of 18 (1.31) |
| F27T T28N D106K | nd / nd / nd / nd / nd / nd | 0 of 18 |
| T28E S53R R100E D106P | nd / nd / nd / nd / nd / nd | 0 of 18 |
| F59M S63Q K65V | 2.98 / 1.67 / nd / 3.13 / 3.62 / 2.90 | 0 of 18 |
| T28D Y32F G61A R100D | 0.53 / 1.02 / 0.43 / 0.49 / 0.57 / 1.11 | 0 of 18 |
| A101E T104F | nd / nd / nd / nd / nd / nd | 0 of 18 |
| G61E S107I | nd / nd / nd / nd / nd / nd | 0 of 18 |
| S53A A101N S107Y | 0.60 / 0.41 / 0.70 / 0.65 / 0.63 / 1.00 | 0 of 18 |
| T28G S31Q T58K K65R G99N A102K S107Q | nd / nd / nd / nd / nd / nd | 0 of 18 |
| N30P G61T R100D T104R | nd / nd / nd / nd / nd / nd | 0 of 18 |
| N30K G61A F105K S107N | nd / nd / nd / nd / nd / nd | 0 of 18 |
| S31E S53A A102C | -1.11 / -1.18 / -1.20 / -1.22 / 0.01 / -0.63 | 0 of 18 |
| F27N S53A R100W G103D | nd / nd / nd / nd / nd / nd | 1 of 18 (2.90) |
| S31M G61K V64Y R100W A102M | nd / nd / nd / nd / nd / nd | 0 of 18 |
| S31M R56M R100E G103K S107T | nd / nd / nd / nd / nd / nd | 0 of 18 |
| T28S D62N R100N A101F | nd / 1.35 / nd / nd / 1.51 / nd | 0 of 18 |
| F27E R56Q F105W | nd / 4.45 / nd / nd / nd / 2.85 | 1 of 18 (1.80) |
| G61A D106P | nd / nd / nd / nd / nd / nd | 1 of 18 (1.84) |
| G26Q A101V D106F | nd / nd / nd / nd / nd / nd | 0 of 18 |
| F27E G61H T104A | nd / nd / nd / nd / nd / nd | 0 of 18 |
| G103L S107Y | nd / nd / nd / nd / nd / nd | 0 of 18 |
| N30D S31T S63K R100S D106P | 0.51 / 0.15 / 0.25 / -0.05 / 0.56 / 0.76 | 0 of 18 |
| G61T R100P A101L D106N | nd / nd / nd / 2.14 / nd / nd | 0 of 18 |
| F59Y R100Q A101N | nd / 0.29 / nd / 1.10 / 0.19 / nd | 0 of 18 |
| G26D I34S | nd / nd / nd / nd / nd / nd | 0 of 18 |
| N30E T58E A101Q S107Y | nd / nd / nd / nd / nd / nd | 1 of 18 (2.63) |
| S31R | nd / nd / nd / nd / nd / nd | 1 of 18 (1.42) |
| G61K A102K | nd / nd / nd / nd / nd / nd | 0 of 18 |
| T28S N30L S31E F59E D106W | nd / nd / nd / nd / nd / nd | 0 of 18 |
| G26K S31E I34S R56Y G61Q R100W | 0.67 / 0.16 / 0.02 / 1.69 / 0.68 / 0.53 | 0 of 18 |

The last 4 entries again:

| changes | replicates, log10 nM | signal with controls |
|---|---|---|
| S31R | nd / nd / nd / nd / nd / nd | 1 of 18 (1.42) |
| G61K A102K | nd / nd / nd / nd / nd / nd | 0 of 18 |
| T28S N30L S31E F59E D106W | nd / nd / nd / nd / nd / nd | 0 of 18 |
| G26K S31E I34S R56Y G61Q R100W | 0.67 / 0.16 / 0.02 / 1.69 / 0.68 / 0.53 | 0 of 18 |